For one assay, the target named is PD-1/PD-L1 (Homo sapiens, UniProt Q9NZQ7). The assay is described as follows: PD-1/PD-L1 binding assay (HTRF, PPI-HTRF). As to conditions: read-out: PPI-HTRF (IC50/nM); HTRF PD1/PD-L1 binding assay kit; 10 nM Tag1-PD-L1; 25° C. On the procedure:
Assay 1 PD-1/PD-L1 Binding Assay
DMSO is from Sigma, Cat No: D5879; 384-well small volume plate (white) is from Greiner, Cat No: 784075; Anti-PD1 blocking antibody (IC50: 10 nM) is from Cisbio, Cat No: 64CUS000C-1a; Anti-PDL1 blocking antibody (IC50: 0.3 nM) is from Cisbio, Cat No: 64CUS000C-1b; HTRF PD1/PD-L1 binding assay kit is from Cisbio, Cat No: 63ADK000CPDPEB.
1. Prepare the compound to be tested at 2x concentration into 1× reaction buffer containing 4% DMSO;
2. Tag1-PD-L1 protein and Tag2-PD1 protein were prepared in 1× reaction buffer at concentrations of […] and 10 nM, respectively. The final reaction concentration of the experiment was 10 nM Tag1-PD-L1 and 2 nM […];
3. anti-Tag1-Eu3+ antibody is prepared in 1x concentration detection buffer at a ratio of 1:100;
4. anti-Tag2-XL665 antibody is prepared in 1x concentration detection buffer at a ratio of 1:25; Experimental steps
1. 5 μL of compounds to be tested (2×) was added;
2. 2.5 ul Tag1-PD-L1 protein and 2.5 ul Tag2-PD1 protein were added respectively, and the total reaction system is 10 ul, and reacted at 25° C. for 15 minutes;
3. 5 ul anti-Tag1-Eu3+ antibody and 5 ul anti-Tag2-XL665 antibody were added respectively, and reacted at 25° C. for 16 hours;
4. The fluorescence microplate reader HTRF reading program was used to read two readings at 665 nm and 620 nm, the ratio of the two wavelengths was used to judge the activity of the compound, and the IC50 of the compound to be tested is calculated by XLFIT5.0 (IDBS).

Protein sequences, listed by entry. Tags and fused reporters are not part of them. Residues count along the entry.
UniProt Q9NZQ7, 19-238 limits assumed: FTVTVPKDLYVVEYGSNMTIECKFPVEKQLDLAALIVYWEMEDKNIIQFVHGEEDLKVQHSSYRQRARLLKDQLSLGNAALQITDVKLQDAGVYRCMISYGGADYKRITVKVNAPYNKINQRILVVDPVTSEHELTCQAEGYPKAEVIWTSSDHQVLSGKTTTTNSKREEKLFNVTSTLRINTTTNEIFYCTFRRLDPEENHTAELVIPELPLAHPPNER

Assay [1] concerns Jurkat T(PD1 Luc-)/CHOK1(PDL-1). The assay can be described thus: Jurkat T(PD1 Luc-)/CHOK1(PDL-1) cell experiment (luciferase reporter). The settings on record: read-out: Jurkat T (PD1 Luc-/ CHOK1(PDL-1) (EC50/nM)); CHO/PD-L1-OKT3 cells co-cultured with Jurkat/PD1-NFAT-Luc cells for 6 hours; Bio-Glo luciferase signal. On the procedure: Assay 2 Jurkat T(PD1 Luc-)/CHOK1(PDL-1) Cell Experiment
G418, Sangon Biotech #A100859-0001, Cat Number G108BA0003, 5 ml of deionized water being added into each bottle, store at 4° C.
CHO/PD-L1-OKT3 cells (constructed by referring to Promega's PD-1/PD-L1 Blockade Bioassays system) cultured in F-12K medium (containing 10% FBS, 800 ug/ml G418, 400 ug/ml D Hygromycin B) were planted into a 96-well plate at 2×10^4 per well, and incubated for 24 hours at 37° C. and 5% CO2. part of the medium was removed, and the test compound dissolved in DMSO with a final concentration of 1 uM was added, and DMSO at the same concentration was added into the control cells. Jurkat/PD1-NFAT-Luc cells (constructed by referring to Promega's PD-1/PD-L1 Blockade Bioassays system) were added at 5×10^5 per well at the same time, and cultured for 6 hours. The corresponding luciferase signal was detected by Bio-Glo™ (Promega, G7940) reagent. The EC50 of each compound to be tested was calculated through the non-linear regression of XLfit software.

Structures are written as SMILES.

On to `COc1cc(/C=C/c2cccc(-c3cccc(-c4nc5cc(CN6CC[C@@H](O)C6)cc(C(F)(F)F)c5o4)c3C)c2C)c(C(F)(F)F)cc1CN1CC[C@@H](C(=O)O)C1`, for which the IC50 on PD-1/PD-L1 amounted to 2 nM.

With `COc1cc(/C=C/c2cccc(-c3cccc(-c4nc5cc(CN6CC[C@@H](O)C6)cc(C#N)c5o4)c3C)c2C)c(C(F)(F)F)cc1CN1CC[C@@H](C(=O)O)C1`, the IC50 at PD-1/PD-L1 is 1 nM. Besides, the EC50 in assay [1] was 41 nM.

Regarding `COc1cc(C(=O)Nc2cccc(-c3cccc(/C=C/c4cc(OC)c(CN5CC[C@@H](C(=O)O)C5)cc4C(F)(F)F)c3C#N)c2C)ncc1CN1CC[C@@H](O)C1`, at PD-1/PD-L1, the IC50 was less than 1 nM. Further, the EC50 in assay [1] was 24 nM.

For the origin of these results see patent US20210386721A1, “SUBSTITUTED PHENYLPROPENYL PYRIDINE DERIVATIVES, THEIR PREPARATION AND PHARMACEUTICAL APPLICATIONS” (SHANGHAI HAIYAN PHARMACEUTICAL TECHNOLOGY CO., LTD., priority 2019, published 2021).
